Data reported in patent US8034940B2, “Modulators of glucocorticoid receptor, AP-1, and/or NF-κB activity and use thereof” (Bristol-Myers Squibb Company, priority 2006, dated 2011).

Sequences of proteins named here, by UniProt entry; tags and fusion partners are left off.
UniProt P04150, whole entry: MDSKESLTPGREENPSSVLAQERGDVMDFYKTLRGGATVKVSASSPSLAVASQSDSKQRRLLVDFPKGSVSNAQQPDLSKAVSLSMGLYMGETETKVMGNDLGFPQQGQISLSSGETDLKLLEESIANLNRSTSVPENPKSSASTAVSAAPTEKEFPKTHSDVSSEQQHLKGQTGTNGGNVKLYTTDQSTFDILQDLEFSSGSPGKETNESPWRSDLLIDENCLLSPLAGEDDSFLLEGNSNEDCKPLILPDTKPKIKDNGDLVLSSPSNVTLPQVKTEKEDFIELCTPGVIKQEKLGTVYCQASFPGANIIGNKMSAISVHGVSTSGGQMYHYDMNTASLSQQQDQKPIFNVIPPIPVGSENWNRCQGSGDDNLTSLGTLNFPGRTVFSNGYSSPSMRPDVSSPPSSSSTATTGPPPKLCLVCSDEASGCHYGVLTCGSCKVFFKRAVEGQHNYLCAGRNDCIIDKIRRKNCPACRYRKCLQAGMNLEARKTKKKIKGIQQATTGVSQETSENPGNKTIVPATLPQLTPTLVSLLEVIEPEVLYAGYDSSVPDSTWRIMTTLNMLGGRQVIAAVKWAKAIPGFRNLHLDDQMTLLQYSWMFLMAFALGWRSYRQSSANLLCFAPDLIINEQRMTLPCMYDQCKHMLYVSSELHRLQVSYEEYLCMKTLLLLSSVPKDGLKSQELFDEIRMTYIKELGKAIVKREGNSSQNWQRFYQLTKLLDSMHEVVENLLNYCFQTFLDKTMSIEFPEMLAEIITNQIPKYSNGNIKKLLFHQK

Columns and labels:
[1] = biological target: T1, human full-length glucocorticoid receptor (Homo sapiens, UniProt P04150); assay: Glucocorticoid Receptor Binding Assay (I), fluorescence polarization, Fluormone GS Red; settings: read-out: GR (Ki, nM) (GR Binding Assay (I))
[2] = biological target: T1, human full-length glucocorticoid receptor; assay: Glucocorticoid Receptor Binding Assay (II), fluorescence polarization, FITC-dexamethasone; settings: read-out: GR (Ki, nM) (GR Binding Assay (II))

SMILES	Ki [1] [nM]	Ki [2] [nM]
COc1ccc2c(n1)Oc1ccccc1C2C(C)(C)C(=O)Nc1nncs1 (centres unmarked)	56.1	–
CCCC(=O)Nc1ccc2c(n1)Oc1ccccc1[C@@H]2C(C)(C)C(=O)Nc1nncs1	7.58	–
CN(Cc1ccccc1)c1ccc2c(n1)Oc1ccccc1C2C(C)(C)C(=O)Nc1nccs1 (centres unmarked)	–	80.9
CCCC#Cc1ccc2c(n1)Oc1ccccc1[C@@H]2C(C)(C)C(=O)Nc1nncs1	4	–
CC(C)(C(=O)Nc1nncs1)[C@H]1c2ccccc2Oc2nc(-c3ccc(C(=O)N4CCC[C@H]4CO)cc3)ccc21	9.56	–
